Data taken from publication PMC13089524, “Development of SYK NanoBRET cellular target engagement assays for gain–of–function variants” (Frontiers in chemical biology, 2024).

Assays:
SYK(S550F)-NL = SYK(S550F)-NL (Homo sapiens, UniProt P43405, S550F); test: NanoBRET cellular target engagement assay in intact live HEK293 cells, SYK(S550F)-NL
SYK(S550Y)-NL = SYK(S550Y)-NL (Homo sapiens, UniProt P43405, S550Y); test: NanoBRET cellular target engagement assay in intact live HEK293 cells, SYK(S550Y)-NL
SYK(P342T)-NL = SYK(P342T)-NL (Homo sapiens, UniProt P43405, P342T); test: NanoBRET cellular target engagement assay in intact live HEK293 cells, SYK(P342T)-NL

c1cn2cc(-c3ccc4cn[nH]c4c3)nc(Nc3ccc(N4CCOCC4)cc3)c2n1 [Entospletinib]
IC50 (SYK(S550F)-NL): 0.35 ± 0.012 µM | IC50 (SYK(S550Y)-NL): 0.095 ± 0.03 µM | IC50 (SYK(P342T)-NL): 0.7 ± 0.12 µM
